# ChEMBL document CHEMBL1158185, “Synthesis and potent antileukemic activities of 10-benzyl-9(10H)-acridinones” (Bioorg Med Chem, 2008)
# Some compounds may have been tested in ways that are not shown here.
# System: CCRF-CEM
# Assay: Antiproliferative activity against human CCRF-CEM cells after 48 hrs by MTT assay
compound,measurement,value
O=C1CCN(Cc2ccccc2)CC1,IC50,> 100 µM
COc1cc(CN2CCC(=O)CC2)cc(OC)c1,IC50,> 100 µM
